Patent US12421254B2, “KRAS modulators and uses thereof” (Quanta Therapeutics, Inc., priority 2023, dated 2025)

Protein sequences, listed by entry. Tags and fused reporters are not part of them. Residues count along the entry.
UniProt P01116, 2-169 isoform 2 G12D limits assumed: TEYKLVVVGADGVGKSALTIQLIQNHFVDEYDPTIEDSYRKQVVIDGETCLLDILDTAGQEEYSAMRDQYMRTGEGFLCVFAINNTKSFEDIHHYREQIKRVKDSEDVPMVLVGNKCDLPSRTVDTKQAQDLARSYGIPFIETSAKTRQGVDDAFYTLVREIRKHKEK
UniProt P01116, 2-169 isoform 2 G12V limits assumed: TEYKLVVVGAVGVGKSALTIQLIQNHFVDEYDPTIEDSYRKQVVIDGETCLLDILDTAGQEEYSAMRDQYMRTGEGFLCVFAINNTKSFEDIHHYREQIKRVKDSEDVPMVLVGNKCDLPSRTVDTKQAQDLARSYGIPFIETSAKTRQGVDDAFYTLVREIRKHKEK

What was measured:
[1] = biological target: GST-tagged KRAS-G12D (2-169) (Homo sapiens, UniProt P01116, G12D); assay: Nucleotide exchange assay (NEA), SOS-mediated, HTRF, KRAS G12D; conditions: read-out: NEA G12D IC50; Table 4; IC50 extracted at 30 min; 20 nM SOScat; tested form: TFA
Text: (§1) This activity is tightly regulated by GTPase activating proteins (GAPs) and guanine nucleotide exchange factors (GEFs). GEFs, such as SOS1/2, activate Ras proteins by exchanging GDP for GTP, thus returning Ras to its active conformation (Simanshu, Nissley, & McCormick, 2017). […] Homogenous time resolved fluorescence (HTRF) was used to detect SOS-mediated binding of a fluorescent GTP analog, GTP-DY-647P1 (Jena Biosciences NU-820-647P1) to GST-tagged KRAS-G12D (2-169) or to GST-tagged KRAS-G12V (2-169, Reaction Biology, MSC-11-540).
(§2) GST-tagged KRAS-G12D (2-169) and anti-GST MAb Tb Cryptate Gold (CisBio 61GSTTLB) were diluted into assay buffer (20 mM HEPES, pH 7.3, 150 mM NaCl, 5 mM MgCl2, 0.05% BSA 0.0025% NP40, 1 mM DTT) to prepare a 2.5× donor solution. 5× compound was added to the protein mixture and incubated for 1 h at RT. 2.5× acceptor solution containing SOS1cat (564-1049, Reaction Biology MSC-11-502) and GTP-DY-647P1 were then added to the donor KRAS mixture such that the final concentration of the reaction contained 0.25 nM GST-tagged KRAS-G12D (2-169), 20 nM SOScat, and 150 nM GTP-DY-647P1. The reaction was monitored using at RT with the Envision multimode plate reader (Ex/Em 337/665, […]) up to 90 minutes at 5 minute intervals. […] Data was blanked to reactions without SOS1 and % inhibition was calculated such that DMSO only =0% and blank=100%. […]

[2] = biological target: GST-tagged KRAS-G12V (2-169) (Homo sapiens, UniProt P01116, G12V); assay: Nucleotide exchange assay (NEA), SOS-mediated, HTRF, KRAS G12V; conditions: read-out: NEA G12V IC50; Table 4; IC50 extracted at 90 min; 80 nM SOS; tested form: TFA
Text: as §1, §2

[3] = tested on: phospho-ERK in GP2D (KRAS-G12D) cells; assay: pERK In Cell Western (ICW) assay (Method B), GP2D; conditions: read-out: ICW GP2D IC50, Table 4, 3 hours, tested form: TFA
Protocol: (§3) pERK ICW is a high throughput screening assay to evaluate the cellular potency of mutant KRAS small molecule inhibitors. KRAS mutant cell lines AGS, GP2D (KRAS-G12D) as well as SW620 (KRAS-G12V) were purchased from ATCC and maintained respectively in RPMI/DMEM/RPMI medium supplemented with 10% fetal bovine serum.
(§4) Cells grown in exponential phase were trypsinized, resuspended in fresh media, and viable cells were counted using a cell counter with Trypan Blue (BioRad TC20). Cells were seeded into 384-well plate (Greiner 781091) at density of 5,000 cells/well for AGS and 10,000 cells/well for GP2D/SW620 and allowed to grow overnight in a 37° C. CO2 incubator. The next day, compounds were dispensed into wells with a ½ log, 9-point serial dilution using a Tecan D300e dispenser and incubated for 3 hours in a 37° C. CO2 incubator. Cells were then fixed with paraformaldehyde (Electron Microscopy Sciences, 15710, 4% final concentration) for 30 min, permeabilized with wash buffer (1×PBS+0.1% Triton X-100) for 30 min and blocked with Odyssey blocking buffer (Li—COR 927-70001) for 1 hour, all at room temperature (RT). Phospho-ERK antibody (CST 4370L) was diluted 1:500 in Odyssey T20 (PBS) antibody diluent (Li—COR 927-75001) and incubated with cells overnight at 4° C. […]

[4] = tested on: phospho-ERK in SW620 (KRAS-G12V) cells; assay: pERK In Cell Western (ICW) assay (Method B), SW620; conditions: read-out: ICW SW620 IC50, Table 4, 3 hours, tested form: TFA
Protocol: as §3, §4

Compound `CC1(O)CCCN(c2nc(OCC3(CN4CCOCC4)CC3)nc(N3CC4(CCc5sc(N)c(C#N)c54)C3)n2)C1` (stereo not shown) has an IC50 [1] of less than 10 nM, an IC50 [2] of less than 10 nM and an IC50 [3] of 10 to 100 nM. It also gave an IC50 [4] of 100 to 1000 nM.
